Measured values: patent publication EP2138169B1, “Transdermal delivery system of hormones without penetration enhancers” (Bayer Intellectual Property GmbH, priority 2003, dated 2005)

Parameters: species or system women
Conditions: female, human, in vivo
Source text: The effect on ovulation inhibition, serum drug concentrations and safety of a patch of the invention was investigated in a selected population of women. The study design was based on the requirements of the EMEA quideline for clinical studies with contraceptive steroids (Commitee for Proprietary Medicinal Products, CPMP/EWP 519/98).
Arcare MA-24A® is a polyisobutylene based adhesive from Adhesive Research.
The treatment phase includes a period of two menstrual cycles. The first treatment in the first cycle began one day after the volunteers started menstruating in this cycle by application of a patch. A total of three test patches were applied in intervals of 7 days between, such as application at days 1, 8 and 15 of the first cycle - each at different application sites- during each treatment cycle. Each patch was worn for 7 days, then replaced with a new patch to complete a total of 21 days of continuous use. This was followed by a 7-day treatment-free interval before the next treatment period started with a total of three patches applied, each applied with an interval of 7 days. If the patches were lost or became more than 40% detached, a new patch was applied.
The AUC was calculated according to the linear trapezoidal rule. […]
After incubation and centrifugation, the resultant precipitate was redissolved with NaOH. The assay has a lower limit of quantification of approx. 250 pg/ml.

Structure (SMILES): C#C[C@]1(O)C=C[C@H]2[C@@H]3CCC4=CC(=O)CC[C@@H]4[C@H]3CC[C@@]21CC [Gestodene, 13β-Ethyl-17α-ethynyl-17β-hydroxy-4,15-gonadien-3-one]
- Tmax (mean) of gestodene (GSD): 144 h
